The assay addresses Histamine H3 receptor (Homo sapiens, UniProt Q9Y5N1). Kind of assay: biochemical. In kind it is cell-based, CHO-K1.

Sequences of proteins named here, by UniProt entry; tags and fusion partners are left off. A change or cut given only in a name is not applied to a line headed by its entry.
UniProt Q9Y5N1: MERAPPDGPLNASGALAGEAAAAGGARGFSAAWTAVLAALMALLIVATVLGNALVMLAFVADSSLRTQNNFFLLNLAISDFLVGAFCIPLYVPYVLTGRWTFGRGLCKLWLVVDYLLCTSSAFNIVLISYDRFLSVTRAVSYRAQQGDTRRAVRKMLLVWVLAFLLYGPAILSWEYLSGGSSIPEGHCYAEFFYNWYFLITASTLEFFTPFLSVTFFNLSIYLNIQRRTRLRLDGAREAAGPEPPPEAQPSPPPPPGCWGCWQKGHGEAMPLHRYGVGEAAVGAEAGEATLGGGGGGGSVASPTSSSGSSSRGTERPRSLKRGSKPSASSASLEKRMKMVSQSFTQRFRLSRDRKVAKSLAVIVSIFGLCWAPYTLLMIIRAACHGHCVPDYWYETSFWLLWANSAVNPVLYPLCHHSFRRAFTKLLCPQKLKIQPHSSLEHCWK

In turn, `O=C(c1ccc(OCCCc2cnc[nH]2)cc1)C1CC1` [CIPROXIFAN] gave a Ki of 46 nM.

Molecule `NC(=NCc1ccc(Cl)cc1)SCCCc1cnc[nH]1` [CLOBENPROPIT] registered a Ki of 2.4 nM.
